US5952530A, “Separation processes” (Union Carbide Chemicals & Plastics Technology Corporation, priority 1998, dated 1999)

Columns and labels:
[1] = Partition coefficient Kp of the ligand between hexane and polar solvent; conditions: hexane/acetonitrile solvent system; examples, Tables A and B
[2] = Partition coefficient Kp with rhodium/ligand catalyst solutions (rhodium in each phase determined); conditions: hexane/acetonitrile; 136 ppm rhodium, 0.6 wt% Ligand E, 50 psig syn gas; Example 14

CC(C)(C)CC(C)(C)c1cc(-c2cc(C(C)(C)CC(C)(C)C)cc(C(C)(C)CC(C)(C)C)c2Op2oc3ccc(C(C)(C)C)cc3c3cc(C(C)(C)C)ccc3o2)c(Op2oc3ccc(C(C)(C)C)cc3c3cc(C(C)(C)C)ccc3o2)c(C(C)(C)CC(C)(C)C)c1 [Ligand E]
partition coefficient Kp [1]: 2.7
partition coefficient Kp of the ligand [2]: 1.72

CCCCCC(C)(C)c1cc(-c2cc(C(C)(C)CCCCC)cc(C(C)(C)CCCCC)c2Op2oc3ccccc3c3ccccc3o2)c(Op2oc3ccccc3c3ccccc3o2)c(C(C)(C)CCCCC)c1 [Ligand D]
partition coefficient Kp [1]: 2.06

CC(C)(C)c1cc(-c2cc(C(C)(C)C)cc(C(C)(C)C)c2Op2oc3ccc(C(C)(C)C)cc3c3cc(C(C)(C)C)ccc3o2)c(Op2oc3ccc(C(C)(C)C)cc3c3cc(C(C)(C)C)ccc3o2)c(C(C)(C)C)c1 [Ligand B]
partition coefficient Kp [1]: 1.41

CC1(c2cc(-c3cc(C4(C)CCCCC4)cc(C4(C)CCCCC4)c3Op3oc4ccccc4c4ccccc4o3)c(Op3oc4ccccc4c4ccccc4o3)c(C3(C)CCCCC3)c2)CCCCC1 [Ligand G]
partition coefficient Kp [1]: 1.28

c1ccc(-c2ccccc2Op2oc3ccccc3c3ccccc3o2)c(Op2oc3ccccc3c3ccccc3o2)c1 [Ligand A, reference compound]
partition coefficient Kp [1]: -1.4

CCC(C)(C)c1cc(-c2cc(C(C)(C)CC)cc(C(C)(C)CC)c2Op2oc3ccccc3c3ccccc3o2)c(Op2oc3ccccc3c3ccccc3o2)c(C(C)(C)CC)c1 [Ligand H]
partition coefficient Kp [1]: 0.778

CC(C)(C)CC(C)(C)c1cc(-c2cc(C(C)(C)CC(C)(C)C)cc(C(C)(C)CC(C)(C)C)c2Op2oc3ccccc3c3ccccc3o2)c(Op2oc3ccccc3c3ccccc3o2)c(C(C)(C)CC(C)(C)C)c1 [Ligand C]
partition coefficient Kp [1]: 1.58
